Five compounds from PubChem BioAssay (Tox21) can be followed below.

By UniProt entry, the sequences of proteins in these tests, tags left out.
UniProt P34981, whole entry: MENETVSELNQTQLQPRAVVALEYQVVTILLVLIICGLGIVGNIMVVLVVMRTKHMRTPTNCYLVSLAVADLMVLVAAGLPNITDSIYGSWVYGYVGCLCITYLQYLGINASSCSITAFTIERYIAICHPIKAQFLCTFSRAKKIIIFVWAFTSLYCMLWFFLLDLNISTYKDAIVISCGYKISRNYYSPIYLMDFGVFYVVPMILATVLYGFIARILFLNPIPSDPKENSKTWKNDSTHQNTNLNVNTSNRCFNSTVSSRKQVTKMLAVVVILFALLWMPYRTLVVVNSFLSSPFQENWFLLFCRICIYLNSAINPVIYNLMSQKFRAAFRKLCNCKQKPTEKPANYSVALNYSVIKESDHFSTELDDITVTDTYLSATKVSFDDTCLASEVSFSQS
UniProt O75469, whole entry: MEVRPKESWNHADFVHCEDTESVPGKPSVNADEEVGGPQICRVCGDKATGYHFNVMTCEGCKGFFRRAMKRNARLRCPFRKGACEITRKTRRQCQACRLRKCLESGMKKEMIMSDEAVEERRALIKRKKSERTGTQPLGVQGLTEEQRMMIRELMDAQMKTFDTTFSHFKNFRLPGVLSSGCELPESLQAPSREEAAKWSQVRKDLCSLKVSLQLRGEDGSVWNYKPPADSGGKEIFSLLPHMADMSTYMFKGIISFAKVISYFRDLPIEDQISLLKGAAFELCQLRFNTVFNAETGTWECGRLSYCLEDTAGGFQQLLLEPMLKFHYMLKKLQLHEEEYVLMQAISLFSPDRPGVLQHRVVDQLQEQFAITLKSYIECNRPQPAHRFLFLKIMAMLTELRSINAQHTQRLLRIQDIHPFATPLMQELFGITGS
UniProt P33261, whole entry: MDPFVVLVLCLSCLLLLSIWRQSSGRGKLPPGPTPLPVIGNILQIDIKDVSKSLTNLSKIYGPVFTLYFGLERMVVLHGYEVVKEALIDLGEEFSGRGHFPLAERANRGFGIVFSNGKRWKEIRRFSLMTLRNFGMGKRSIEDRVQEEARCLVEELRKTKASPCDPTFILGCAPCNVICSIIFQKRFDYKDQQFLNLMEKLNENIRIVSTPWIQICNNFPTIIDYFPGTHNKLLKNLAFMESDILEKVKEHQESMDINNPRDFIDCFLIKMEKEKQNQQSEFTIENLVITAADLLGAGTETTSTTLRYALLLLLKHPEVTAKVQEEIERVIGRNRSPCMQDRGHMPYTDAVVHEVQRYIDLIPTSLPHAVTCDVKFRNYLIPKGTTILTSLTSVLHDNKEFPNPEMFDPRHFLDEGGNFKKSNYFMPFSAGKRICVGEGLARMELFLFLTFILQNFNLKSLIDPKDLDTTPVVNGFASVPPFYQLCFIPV
UniProt P11712, whole entry: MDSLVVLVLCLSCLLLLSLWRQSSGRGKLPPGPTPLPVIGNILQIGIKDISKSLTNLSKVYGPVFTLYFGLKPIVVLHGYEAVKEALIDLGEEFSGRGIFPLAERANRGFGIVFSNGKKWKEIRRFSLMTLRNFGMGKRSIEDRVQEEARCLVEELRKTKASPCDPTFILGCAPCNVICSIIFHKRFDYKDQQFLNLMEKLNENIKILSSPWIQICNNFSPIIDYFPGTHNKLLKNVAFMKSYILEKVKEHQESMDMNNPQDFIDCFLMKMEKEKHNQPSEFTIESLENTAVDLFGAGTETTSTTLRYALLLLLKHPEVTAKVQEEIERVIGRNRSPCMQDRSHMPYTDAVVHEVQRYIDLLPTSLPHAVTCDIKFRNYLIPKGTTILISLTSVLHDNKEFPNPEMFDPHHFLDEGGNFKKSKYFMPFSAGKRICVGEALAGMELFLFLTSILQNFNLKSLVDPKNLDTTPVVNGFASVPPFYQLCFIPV
UniProt P05177, whole entry: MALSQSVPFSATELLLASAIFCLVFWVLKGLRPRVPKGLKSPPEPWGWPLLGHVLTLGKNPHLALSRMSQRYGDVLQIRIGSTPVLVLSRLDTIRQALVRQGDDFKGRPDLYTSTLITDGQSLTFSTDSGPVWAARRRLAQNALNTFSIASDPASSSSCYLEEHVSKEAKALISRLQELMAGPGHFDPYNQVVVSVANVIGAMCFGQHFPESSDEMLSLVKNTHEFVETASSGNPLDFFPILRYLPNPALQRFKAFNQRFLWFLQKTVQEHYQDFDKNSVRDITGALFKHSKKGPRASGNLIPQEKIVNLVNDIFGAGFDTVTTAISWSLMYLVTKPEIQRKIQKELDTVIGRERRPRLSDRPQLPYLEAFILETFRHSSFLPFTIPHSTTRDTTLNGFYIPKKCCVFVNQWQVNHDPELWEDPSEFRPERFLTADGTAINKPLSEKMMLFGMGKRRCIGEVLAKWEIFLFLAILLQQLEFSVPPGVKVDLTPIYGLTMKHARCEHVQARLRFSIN
UniProt Q12809, whole entry: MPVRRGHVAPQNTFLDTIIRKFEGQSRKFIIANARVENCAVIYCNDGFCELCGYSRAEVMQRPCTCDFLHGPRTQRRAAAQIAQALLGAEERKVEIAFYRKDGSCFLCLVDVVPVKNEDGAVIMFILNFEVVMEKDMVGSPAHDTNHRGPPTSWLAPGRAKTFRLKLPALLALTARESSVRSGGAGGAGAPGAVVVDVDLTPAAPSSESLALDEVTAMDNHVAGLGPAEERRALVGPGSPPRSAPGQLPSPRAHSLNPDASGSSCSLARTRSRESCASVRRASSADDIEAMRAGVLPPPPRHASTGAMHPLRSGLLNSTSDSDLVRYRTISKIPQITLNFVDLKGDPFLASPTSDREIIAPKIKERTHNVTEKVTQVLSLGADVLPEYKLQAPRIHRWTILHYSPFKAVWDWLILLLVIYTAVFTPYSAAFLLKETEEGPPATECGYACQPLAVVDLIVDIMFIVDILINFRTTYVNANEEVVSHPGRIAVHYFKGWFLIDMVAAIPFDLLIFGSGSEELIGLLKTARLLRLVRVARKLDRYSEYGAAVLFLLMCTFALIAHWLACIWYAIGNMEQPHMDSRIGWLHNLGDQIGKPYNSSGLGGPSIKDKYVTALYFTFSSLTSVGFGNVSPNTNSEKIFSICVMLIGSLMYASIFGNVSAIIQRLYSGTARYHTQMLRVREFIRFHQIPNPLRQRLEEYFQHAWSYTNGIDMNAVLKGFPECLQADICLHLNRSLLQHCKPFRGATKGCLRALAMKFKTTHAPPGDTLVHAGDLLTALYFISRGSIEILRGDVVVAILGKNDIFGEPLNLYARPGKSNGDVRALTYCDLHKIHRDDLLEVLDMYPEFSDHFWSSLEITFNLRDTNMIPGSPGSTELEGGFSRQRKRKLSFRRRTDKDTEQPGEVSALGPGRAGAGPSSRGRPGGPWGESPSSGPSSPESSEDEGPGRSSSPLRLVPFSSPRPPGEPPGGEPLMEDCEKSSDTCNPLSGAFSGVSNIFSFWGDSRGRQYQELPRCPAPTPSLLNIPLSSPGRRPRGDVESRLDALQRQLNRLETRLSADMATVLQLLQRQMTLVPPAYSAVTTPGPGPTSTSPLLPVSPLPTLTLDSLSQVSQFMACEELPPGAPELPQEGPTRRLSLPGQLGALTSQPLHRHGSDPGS
UniProt P08684, whole entry: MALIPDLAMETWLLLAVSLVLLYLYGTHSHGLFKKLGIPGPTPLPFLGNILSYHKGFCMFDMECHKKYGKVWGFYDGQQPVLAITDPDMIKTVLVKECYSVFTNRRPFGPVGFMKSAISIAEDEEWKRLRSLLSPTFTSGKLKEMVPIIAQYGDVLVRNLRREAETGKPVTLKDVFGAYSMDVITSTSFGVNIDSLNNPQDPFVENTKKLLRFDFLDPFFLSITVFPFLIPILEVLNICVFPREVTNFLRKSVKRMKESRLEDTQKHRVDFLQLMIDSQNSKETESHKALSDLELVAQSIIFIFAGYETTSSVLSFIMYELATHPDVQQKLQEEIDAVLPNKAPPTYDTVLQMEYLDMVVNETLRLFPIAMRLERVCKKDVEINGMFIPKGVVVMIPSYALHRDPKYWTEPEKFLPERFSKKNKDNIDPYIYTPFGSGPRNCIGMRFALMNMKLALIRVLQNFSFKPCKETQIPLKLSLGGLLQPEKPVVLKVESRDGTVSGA

Values joined by “and” are separate entries in the source; they are usually repeats but may differ in a detail not shown here. Equal values may be shown once. This is a selection; strong and weak results do not stand in their true shares. Results filed as inconclusive are left out. The source holds several records for some structures; these can differ, active in one and inactive in another. Active and inactive are the calls of the source. Unless noted, the call rests on the fitted dose curve; in most records, active means well fitted curve in the direction sought with a large enough effect in the repeat runs; inconclusive means weak or mixed curves; inactive means no such curve, though single readings can be large; an effect the other way counts as inactive or inconclusive.

Assay [1] can be described thus: qHTS assay to identify small molecule antagonists of the TGF-beta/Smad signaling pathway - cell viability counter screen (AID 1346824). Further: nearly all actives have a fitted effect of over 50% in size. Particulars: SBE-bla HEK293T viability, CellTiter-Glo luminescence; at 76.8 µM (top of the series) unless noted. The essentials:
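SBE-bla HEK 293T cells, incubated overnight, then compound plus 0.25 ng/mL TGF-beta1 (stock added) for 5 hr at 37 C. Viability was read in the same wells by CellTiter-Glo luminescence after 30 min at room temperature.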
A general note: Quantitative high-throughput screening tests each substance at several concentrations.

Assay [2] is described as follows: qHTS assay to identify small molecule agonists of the TGF-beta/Smad signaling pathway - cell viability counter screen (AID 1346829). Further: top concentration of the series differs between compounds; nearly all actives have a fitted effect of over 45% in size. Particulars: SBE-bla HEK293T viability, CellTiter-Glo luminescence, 5 h; at 76.8 µM (top of the series) unless noted. The procedure, abridged:
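Compound-treated SBE-bla HEK 293T cells (5 hr, 37 C) were assessed for viability with CellTiter-Glo in parallel with the reporter read.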

Assay [3] in a line: qHTS assay to identify small molecule agonists of the TGF-beta/Smad signaling pathway (AID 1346859; active means well fitted activation curve with a large enough effect in the signal ratio in the repeat runs, not every such curve was filed as active; the % refers to the signal ratio). To be noted: SBE-bla HEK293T, TGF-beta/Smad beta-lactamase reporter, 5 h; at 76.8 µM (top of the series) unless noted. The procedure, abridged:
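HEK 293T cells stably carrying a beta-lactamase reporter driven by the Smad binding element were seeded overnight, exposed to DMSO-dissolved compounds for 5 hr at 37 C, 5% CO2, then loaded with FRET substrate for 2 hr at room temperature.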

The target of assay [4] is Thyrotropin-releasing hormone receptor (Homo sapiens) (UniProt P34981). The experiment in a line: qHTS assay to identify small molecule antagonists of the thyrotropin-releasing hormone receptor (TRHR) signaling pathway (AID 1346877; active means well fitted inhibition curve with a large enough effect in the repeat runs, not every such curve was filed as active).
The target is the same in assay [5]. The experiment in a line: qHTS assay to identify small molecule agonists of the thyrotropin-releasing hormone receptor (TRHR) signaling pathway (AID 1346891; calls by dose curve;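 further: HEK293 cells expressing TRHR with calcium dye readout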). To be noted: TRHR-HEK293 calcium fluorescence, agonist mode; at 57.6 µM (top of the series).
The nature of assay [6]: Human pregnane X receptor (PXR) small molecule agonists, qHTS cell viability counter screen (AID 1346977). Further: nearly all actives have a fitted effect of over 50% in size. Further: potency means the concentration at half of the fitted maximal effect. The essentials: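 PXR-Luc HepG2 cells in medium with 5% charcoal-stripped FBS were pre-incubated 5hr, then exposed to compounds for 24hr at 37C. Viability was read in the same wells by CellTiter-Fluor fluorescence, reagent added after 23hr with a 1hr incubation.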
Assay [7] in a line: Caspase-3/7 induction in HepG2 cells by small molecules, qHTS assay (AID 1346978). Further: nearly all actives have a fitted effect of over 15% in size. Particulars: HepG2 caspase-3/7 activation, Caspase-Glo luminescence, 17 h; at 92.4 µM (top of the series) unless noted. The essentials: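 Wild-type HepG2 cells, 2,000/well, settled 5 hr at 37 C and 5% CO2, then compound-treated for 17 hr; caspase-3/7 activity read by luminescent Caspase-Glo 3/7 after 30 min at room temperature.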

A short description of assay [8]: Caspase-3/7 induction in HepG2 cells by small molecules, qHTS cell viability counter screen (AID 1346981). Further: nearly all actives have a fitted effect of over 30% in size. Particulars: CellTiter-Fluor fluorescence, 17 h, at 92.4 µM (top of the series). The procedure, abridged: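 Cell viability is measured as a cytotoxicity counter screen alongside the Caspase-Glo 3/7 readout in identical wells. Wild-type HepG2 cells are treated with test compounds for 16 hr at 37 C before CellTiter-Fluor addition and a 1-hr incubation.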

Assay [9] addresses Nuclear receptor subfamily 1 group I member 2 (Homo sapiens) (UniProt O75469). The experiment in a line: Human pregnane X receptor (PXR) small molecule agonists, qHTS assay (AID 1346982). Further: nearly all actives have a fitted effect of over 35% in size. The essentials:
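Cells: HepG2 stably carrying PXR-Luc. Medium held 5% charcoal-stripped FBS. Compounds in DMSO added after 5 hr plating, incubated 24 hr, then luminescence quantified with ONE-Glo.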

Assay [10] addresses Cytochrome P450 2C19 (Homo sapiens) (UniProt P33261). The experiment in a line: Cytochrome P450 Family 2 Subfamily C Member 19 (CYP2C19) small molecule antagonists: luciferase reporter qHTS assay (AID 1671197). Further: nearly all actives have a fitted effect of over 65% in size. Further: potency means the concentration at half of the fitted maximal effect. The essentials:
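P450-Glo CYP2C19 screening system; proluciferin substrate; DMSO compound stocks; 10 min RT preincubation; NADPH regeneration, 1 h at 37C; luciferin detection reagent, 20 min RT; luminescence as RLU.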

Assay [11] deals with Cytochrome P450 2C9 (Homo sapiens) (UniProt P11712). The experiment in a line: Cytochrome P450 Family 2 Subfamily C Member 9 (CYP2C9) small molecule antagonists: luciferase reporter qHTS assay (AID 1671198). Further: nearly all actives have a fitted effect of over 50% in size. Further: potency means the concentration at half of the fitted maximal effect. The procedure, abridged: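 P450-Glo proluciferin substrate with CYP2C9 enzyme; 10 min RT preincubation, then NADPH regeneration 1 h at 37C; luciferin detection reagent 20 min RT, luminescence in relative luminescence units.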
For orientation: A reporter such as luciferase makes a cellular process visible.

In assay [12] the target is Cytochrome P450 1A2 (Homo sapiens) (UniProt P05177). The experiment in a line: Cytochrome P450 Family 1 Subfamily A Member 2 (CYP1A2) small molecule antagonists: luciferase reporter qHTS assay (AID 1671199). Further: nearly all actives have a fitted effect of over 50% in size. Further: potency means the concentration at half of the fitted maximal effect.
In assay [13] the target is Voltage-gated inwardly rectifying potassium channel KCNH2 (Homo sapiens) (UniProt Q12809). The experiment in a line: Human Ether-a-go-go-Related Gene (hERG) channel small molecule antagonists: fluorescence cell-based qHTS assay (AID 1671200). Further: nearly all actives have a fitted effect of over 50% in size. Further: potency means the concentration at half of the fitted maximal effect. The procedure, abridged: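 U2OS cells expressing the channel were plated at 1000 cells/well, incubated overnight at 37 C, then loaded with FluxOR II thallium-sensitive dye for 1 h at room temperature in the dark, with a further 10 min at room temperature before stimulation.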

For assay [14], the target named is Cytochrome P450 3A4 (Homo sapiens) (UniProt P08684). The experiment in a line: Cytochrome P450 Family 3 Subfamily A Member 4 (CYP3A4) small molecule antagonists: luciferase reporter qHTS assay (AID 1671201). Further: nearly all actives have a fitted effect of over 50% in size. Further: potency means the concentration at half of the fitted maximal effect. The procedure, abridged:
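P450-Glo CYP3A4 system with proluciferin substrate; compounds preincubated 10 min RT with enzyme-substrate mix, then NADPH regeneration added for 1 h RT. Detection reagent 20 min, luminescence read as relative luminescence units.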
On the % scale 0 is the no-effect control and ±100 the full control effect.

Consider `CC(C)N(CCO)C(C)C`, for which, in [1], the viability change, negative = cytotoxic was inactive: -1.87%. The activity change, negative = cytotoxicity was inactive: 0.0749% in assay [2] and inactive: 0.689% in assay [8]. For the same compound, the activation in [3] was inactive: -0.2%; in assay [5], inactive: -0.911%. Moreover, the Potency result in assay [4], in assay [6], in [9], in assay [10], in assay [11] and in [13] was “inactive” throughout. Also, the Potency result in [14] was “inactive”. Also, the caspase activation in assay [7] is inactive: 1.11%. In assay [12], the Potency was active: 35.6 µM.
Consider `N#CBr`, for which the viability change, negative = cytotoxic in assay [1] was inactive: -0.843%. Also, the activity change, negative = cytotoxicity is inactive: -12.4% in assay [2] and inactive: -2.44% in assay [8]. For the same compound, the activation is inactive: 4.28% in [3] and inactive: -0.131% in assay [5]. Further, the Potency result in [4], in assay [6], in assay [9], in [10], in [11] and in assay [13] was “inactive” in each case. For the same compound, in [14], the Potency result is “inactive”. For the same compound, in assay [7], the caspase activation is inactive: -1.19%.
Turning to `CC(C)OP(C)(=O)OC(C)C`, in assay [1], the viability change, negative = cytotoxic was inactive: -1.54% and inactive: -3.82%. The activity change, negative = cytotoxicity was inactive: 1.51% and inactive: 4.45% in assay [2]; inactive: 1.73% and inactive: 1.45% in assay [8]. The activation was inactive: -3.16% and inactive: 0.0643% in [3]; inactive: -0.124% and inactive: -0.0184% in assay [5]. Besides, the Potency entry in [4], in assay [6], in assay [9] and in assay [13] was “inactive” in each case. In assay [7], the caspase activation was inactive: -0.512% and inactive: 0.22%. For the same compound, the Potency in assay [10] was active: 22.5 µM and inactive; in assay [11], active: 31.7 µM and inactive; in assay [12], active: 35.6 µM and inactive; in [14], active: 28.3 µM and inactive.
As to `Cc1ccc([N+](=O)[O-])cc1[N+](=O)[O-]`, the viability change, negative = cytotoxic in [1] was inactive: -28.8% and inactive: 15.3%. The activity change, negative = cytotoxicity in assay [2] was inactive: -17.9% and inactive: -0.28%. Moreover, the activation in assay [3] was inactive: -1.45% and inactive: 0.0746%; in assay [5], inactive: 0.233% and inactive: -0.257%. The Potency result in [4] and in [14] was “inactive” each time. Besides, the Potency is active: 20 µM and inactive in assay [6]; active: 35.1 µM and inactive in [10]; active: 22.1 µM and active: 22.4 µM in assay [12]; active: 48.3 µM and inactive in assay [13].
For the compound `COP(C)(=O)OC`, in assay [1], the viability change, negative = cytotoxic is inactive: -0.124% and inactive: 8.28%. Further, the activity change, negative = cytotoxicity in assay [2] was inactive: -11.2% and inactive: -0.335%; in assay [8], inactive: 2.39% and inactive: 3.04%. Also, the activation is inactive: -0.0663% and inactive: 5.38% in assay [3]; inactive: 0.043% and inactive: -0.109% in assay [5]. Besides, the Potency entry in [4], in assay [6], in assay [9], in assay [10], in assay [11] and in [12] was “inactive” each time. Besides, the Potency entry in assay [13] and in assay [14] was “inactive” in each case. In addition, the caspase activation in [7] was inactive: -2.04% and inactive: -0.949%.
